PubChem BioAssay (NCI)
Some of these compounds have results that are not shown, active ones among them.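 Following 48 hours of exposure in 96-well plates, responses at five concentrations were used to interpolate endpoints linearly. Abbreviation: GI50, concentration required for 50% inhibition of growth. TGI is the concentration that stops growth completely.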

Columns and labels:
Assay in all cases: inhibition of tumour cell growth, NCI panel, 48 h; in the data active = GI50 below about 0.43 µM; inactive = the rest
[1] = system: SF-268 CNS
[2] = system: A498 renal
[3] = system: TK-10 renal
[4] = system: NCI-H23 lung
[5] = system: UACC-257 melanoma
[6] = system: 786-0 renal
[7] = system: MDA-MB-435
[8] = system: SK-MEL-5 melanoma
[9] = system: NCI/ADR-RES ovarian
[10] = system: SK-MEL-2 melanoma
[11] = system: RPMI-8226 leukemia
[12] = system: MALME-3M melanoma
[13] = system: UACC-62 melanoma
[14] = system: COLO 205 colon
[15] = system: HOP-92 NSCLC
[16] = system: OVCAR-5 ovarian
[17] = system: BT-549 breast
[18] = system: IGROV1 ovarian
[19] = system: OVCAR-3 ovarian
[20] = system: MDA-N
[21] = system: DU-145 prostate
[22] = system: T-47D breast
[23] = system: HCT-116 colon
[24] = system: PC-3 prostate
[25] = system: SNB-75 CNS
[26] = system: U251 CNS
[27] = system: SF-295 CNS
[28] = system: UO-31 renal

CC#CC(O)(C(=O)OC1C2CCN(CC2)C1C)C1CCCC1 (stereo not given)
inactive: GI50 [2] > 100 µM | GI50 [3] > 100 µM | GI50 [4] > 100 µM | GI50 [5] > 100 µM | GI50 [6] > 100 µM | GI50 [7] > 100 µM | GI50 [8] > 100 µM | GI50 [9] > 100 µM | GI50 [10] > 100 µM | GI50 [11] > 100 µM | GI50 [12] > 100 µM | GI50 [13] > 100 µM | GI50 [14] > 100 µM | GI50 [15] > 100 µM | GI50 [16] > 100 µM | GI50 [17] > 100 µM | GI50 [18] > 100 µM | GI50 [19] > 100 µM | GI50 [20] > 100 µM | GI50 [21] > 100 µM | GI50 [22] > 100 µM | GI50 [23] > 100 µM | GI50 [24] > 100 µM | GI50 [25] > 100 µM | GI50 [26] > 100 µM | GI50 [27] > 100 µM | GI50 [28] > 100 µM
> 100 µM: TGI [1] | TGI [2] | TGI [3] | TGI [4] | TGI [5] | TGI [6] | TGI [7] | TGI [8] | TGI [9] | TGI [10] | TGI [11] | TGI [12] | TGI [13] | TGI [14] | TGI [15] | TGI [16] | TGI [17] | TGI [18] | TGI [19] | TGI [20] | TGI [21] | TGI [22] | TGI [23] | TGI [24] | TGI [25] | TGI [26] | TGI [27] | TGI [28]
